Earlier results as cited in patent US20180200259A1 (priority 2015, published 2018).

Test system: Alzheimer patients
Settings: cited from earlier work

For “Bapineuzumab: an antibody to the N-terminus of Aβ”, the “fraction of patients with ARIA” value (ApoE4+ homozygotes) is listed as “About ⅓” and the “occurrence of ARIA” value (ApoE4+ patients at low dose, and ApoE4− patients at high dose) is listed as “about 20%”.
